Hits are enriched below; roughly 1.2% of the tested compounds scored in any of these assays.
UUG fidelity = modulators of start codon recognition fidelity in yeast; S. cerevisiae UUG-firefly luciferase reporter, luminescence/redox ratio; AID 602363; 350,000 tested, 0.13% active; activity score, % at 18.7 µM;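 active = replicate mean at a twofold rise or more, about +100% in these data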;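 also: firefly luciferase made from a UUG start codon reports start codon fidelity; reporter light over untreated wells divided by growth signal over untreated wells; some hits fall short of that in this replicate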
Cneo AK release = Cryptococcus neoformans cell lysis inducers, primary screen, AK release luminescence, single concentration; C. neoformans lysis, adenylate kinase release luminescence, 4 h; normalised: neutral wells 0, clomiphene wells 100; lysis activity, % at 15 µM; 360,000 compounds, 0.2% hits;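 active = mean lysis activity across replicates of at least 80%, whatever share of replicates individually reach that level; inactive = mean lysis activity below 80%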
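Material: C. neoformans cells | Amount: Yeast cell density of 5 × 10^6 cells/mL | Medium: Fresh YPD growth medium | Dosing: Single dose | Times: Static 4 h at 37 °C with compound, 1 h detection | Detection: AK luminescence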
Glyco luc inh = increase of ERlucT glycosylation luciferase signal, primary screen, N-linked glycosylation inhibitor project, D54 ERlucT cells, luminescence, set 2. reporter increase, % at 12.5 µM. D54 ERlucT glycosylation luciferase reporter, 24 h; percent of 100 nM tunicamycin response. AID 588692, 2011. 360,000 compounds, 0.23% hits;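 active = mean luciferase reporter signal, scaled so untreated is 0 and the glycosylation-blocking control 100, at or above a set limit in every replicate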;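 also: luciferase carries N-glycosylation sites so blocking glycosylation raises the light; 0% = median of neutral control wells and 100% = median of 100 nM tunicamycin wells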
miR-122 sensor = miR-122 Renilla sensor signal increase in Huh7, primary screen, miR-122 inhibitor project, cell-based, single point, plate reader | Huh7 miR-122 Renilla luciferase sensor, 48 h; neutral wells = 0, positive control = 100 | activation (reporter increase), % at 12.5 µM | 340,000 compounds, 0.3% hits;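 active = mean replicate activation score at least 90 and every replicate individually at or above 90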;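 also: higher luciferase means less miR-122 activity so hits act as miR-122 inhibitors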
C2C12 statin = suppressors of statin myotoxicity in C2C12 myotubes, primary screen, cell-based, single point, plate reader. AID 602340, 2012. 330,000 compounds, 0.78% hits. rescue of ATP level, % at 7.49 µM. C2C12 myotubes + simvastatin, ATP luminescence, 48 h; scaled: DMSO 0, geranylgeraniol control 100;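 active = mean ATP rescue above about 67%, or every replicate alone reaching that limit, limit read from the data, passing the limit was not always enough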;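 also: myotubes were challenged with 10 µM simvastatin during compound exposure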
* = called active by the depositor; [ ] = dose if it differs, or a comment.

Results for N#Cc1ccc(C(=O)NCC(c2ccco2)N2CCCCC2)cc1 (stereo not drawn) ?
UUG fidelity: -1; Cneo AK release: -2; Glyco luc inh: 0; miR-122 sensor: -5; C2C12 statin: 124*

What do the screens show for `COC(=O)C1=C(CSCc2ccccc2)NC(=O)NC1c1cc(C)ccc1C` (stereo not drawn)?
UUG fidelity: -17; Cneo AK release: -1; Glyco luc inh: -4; miR-122 sensor: -1; C2C12 statin: 9

What do the screens show for `COC(=O)C1=C(CSCc2ccco2)NC(=O)NC1c1cc(C)ccc1C` (stereo not drawn)?
UUG fidelity: -13; Cneo AK release: -9; Glyco luc inh: -2; miR-122 sensor: 2; C2C12 statin: 134*

Results for Cc1ccc(C)c(S(=O)(=O)N2CCC(c3nc4c(nnn4Cc4ccc5c(c4)OCCO5)c(=O)[nH]3)CC2)c1 ?
UUG fidelity: -9; Cneo AK release: 1; Glyco luc inh: 1; miR-122 sensor: -1; C2C12 statin: 77*

How did CC(C)(C)c1ccc(Cn2nnc3c(=O)[nH]c(C4CCCN(C(=O)Cc5cccs5)C4)nc32)cc1 (stereo not drawn) do in these assays?
UUG fidelity: 13; Cneo AK release: 1; Glyco luc inh: 0; miR-122 sensor: -2; C2C12 statin: 60

How did Cc1ccc(C)c(Cn2nnc3c(=O)[nH]c(C4CCCN(C(=O)CC(C)C)C4)nc32)c1 (stereo not drawn) do in these assays?
UUG fidelity: 3; Cneo AK release: 1; Glyco luc inh: 3; miR-122 sensor: 1; C2C12 statin: 85*

How did O=c1[nH]c(C2CCN(S(=O)(=O)c3ccc4c(c3)OCCO4)CC2)nc2c1nnn2Cc1ccccc1 do in these assays?
UUG fidelity: 7; Cneo AK release: -2; Glyco luc inh: 0; miR-122 sensor: 0; C2C12 statin: 2

How did CC(C)(C)c1ccc(Cn2nnc3c(=O)[nH]c(C4CCN(C(=O)Cc5cccs5)CC4)nc32)cc1 do in these assays?
UUG fidelity: 4; Cneo AK release: 4; Glyco luc inh: 9; miR-122 sensor: -2; C2C12 statin: 112*

What do the screens show for `CNC[C@H]1Oc2c(NC(=O)NC3CCCCC3)cccc2C(=O)N([C@@H](C)CO)C[C@@H]1C`?
miR-122 sensor: -6[16.7 µM]; C2C12 statin: -10

What do the screens show for `CC(Oc1ccc(C#N)cc1)C(=O)c1ccc(F)c(F)c1` (stereo not drawn)?
UUG fidelity: -15; Cneo AK release: 0; Glyco luc inh: -3; miR-122 sensor: -7; C2C12 statin: -6

What do the screens show for `NC(=O)C1CCN(Cc2nc3cc(Cl)ccc3c(=O)[nH]2)CC1`?
UUG fidelity: -5; Cneo AK release: 0; Glyco luc inh: 0; miR-122 sensor: 0; C2C12 statin: 102*

Results for COc1ccc(Cc2nc(-c3cccc(C)c3)no2)cc1 ?
UUG fidelity: -4; Cneo AK release: -2; Glyco luc inh: 2; miR-122 sensor: -3; C2C12 statin: 13

What do the screens show for `Cc1cccc(-c2noc(Cc3ccc(Cl)cc3)n2)c1`?
UUG fidelity: -19; Cneo AK release: -2; Glyco luc inh: 0; miR-122 sensor: -4; C2C12 statin: 121*

Results for COc1ccc(C2CC(=O)C(C=NCCN3CCOCC3)=C(O)C2)cc1 (stereo not drawn) ?
UUG fidelity: 7; Cneo AK release: 0; Glyco luc inh: 1; miR-122 sensor: 4; C2C12 statin: 126*

What do the screens show for `COc1ccc(C2CC(=O)C(C=NCCN3CCN(C(C)=O)CC3)=C(O)C2)cc1` (stereo not drawn)?
UUG fidelity: -3; Cneo AK release: -2; Glyco luc inh: 2; miR-122 sensor: -1; C2C12 statin: 19

What do the screens show for `COc1ccc(CC(C)N2CCN(Cc3ccccc3)CC2)c(OC)c1` (stereo not drawn)?
UUG fidelity: -8; Cneo AK release: 0; Glyco luc inh: 1; miR-122 sensor: 4; C2C12 statin: 96*

Results for COc1cccc(C(=O)Nc2ccc3c(c2)OC[C@H](C)N(CC2CC2)C[C@@H](C)[C@H](OC)CN(C)C3=O)c1 ?
UUG fidelity: 0; Cneo AK release: -4; miR-122 sensor: 2[16.7 µM]; C2C12 statin: 12

What do the screens show for `CCCNC(=O)C[C@H]1CC[C@H]2[C@@H](COC[C@@H](O)CN2C(=O)Nc2ccc3c(c2)OCO3)O1`?
UUG fidelity: -6; Cneo AK release: -1; miR-122 sensor: 0[16.7 µM]; C2C12 statin: 3

Results for CCO[C@@H]1OC(C(=O)N2CCCCCCC2)=C[C@H](C2CCCCC2)[C@H]1CCCO ?
UUG fidelity: -8; Cneo AK release: 3; Glyco luc inh: 1; C2C12 statin: -9

Results for CCCCOC(=O)c1ccc(NC(=O)COC(=O)C2CC2C)cc1 (stereo not drawn) ?
UUG fidelity: 7; Cneo AK release: 2; Glyco luc inh: -3; miR-122 sensor: -8; C2C12 statin: 7

In the list so far, 2 contain a thiophene ring, fused or not:
How did CC(C)(C)c1ccc(Cn2nnc3c(=O)[nH]c(C4CCCN(C(=O)Cc5cccs5)C4)nc32)cc1 (stereo not drawn) do in these assays?
UUG fidelity: 13; Cneo AK release: 1; Glyco luc inh: 0; miR-122 sensor: -2; C2C12 statin: 60

How did CC(C)(C)c1ccc(Cn2nnc3c(=O)[nH]c(C4CCN(C(=O)Cc5cccs5)CC4)nc32)cc1 do in these assays?
UUG fidelity: 4; Cneo AK release: 4; Glyco luc inh: 9; miR-122 sensor: -2; C2C12 statin: 112*

Quoted at random: two entries already listed.
What do the screens show for `COC(=O)C1=C(CSCc2ccco2)NC(=O)NC1c1cc(C)ccc1C` (stereo not drawn)?
UUG fidelity: -13; Cneo AK release: -9; Glyco luc inh: -2; miR-122 sensor: 2; C2C12 statin: 134*

What do the screens show for `CC(Oc1ccc(C#N)cc1)C(=O)c1ccc(F)c(F)c1` (stereo not drawn)?
UUG fidelity: -15; Cneo AK release: 0; Glyco luc inh: -3; miR-122 sensor: -7; C2C12 statin: -6

(cont.)
How did Cn1c(O)c(C2=c3ccccc3=NC2=O)sc1=Nc1ccc(Cl)cc1 do in these assays?
UUG fidelity: -20; Cneo AK release: 3; Glyco luc inh: 1; miR-122 sensor: -1; C2C12 statin: 97*

How did C[C@H](CO)N1C[C@H](C)[C@@H](CN(C)Cc2ccc(Oc3ccccc3)cc2)Oc2ccc(NS(=O)(=O)c3ccc(Cl)cc3)cc2C1=O do in these assays?
UUG fidelity: 4; Cneo AK release: 4; miR-122 sensor: -2[16.7 µM]; C2C12 statin: -47

How did Cc1onc(-c2ccccc2Cl)c1C(=O)N1CCC(C(N)=O)CC1 do in these assays?
UUG fidelity: -1; Cneo AK release: 2; Glyco luc inh: -1; miR-122 sensor: -2; C2C12 statin: 0

Results for CCOC(=O)C1CCN(C(=O)c2c(-c3c(Cl)cccc3Cl)noc2C)CC1 ?
UUG fidelity: 0; Cneo AK release: 0; Glyco luc inh: -2; miR-122 sensor: -1; C2C12 statin: 93*

What do the screens show for `Cc1onc(C(=O)N2CCC(C(N)=O)CC2)c1-c1ccccc1Cl`?
UUG fidelity: -11; Cneo AK release: 1; Glyco luc inh: 1; miR-122 sensor: 1; C2C12 statin: 92*

What do the screens show for `COc1cccc(C2=NOC(C(=O)NCc3ccco3)C2)c1` (stereo not drawn)?
UUG fidelity: 10; Cneo AK release: 2; Glyco luc inh: 29*; miR-122 sensor: 2; C2C12 statin: -2

Results for Cc1ccc(CC2CC(=O)N(CCc3ccc4c(c3)OCO4)C2=O)cc1 (stereo not drawn) ?
UUG fidelity: -11; Cneo AK release: 1; Glyco luc inh: -2; miR-122 sensor: -4; C2C12 statin: 147*
